This is an account of results in BindingDB's records for doi:10.1021/jm021012t (F. Hoffmann-La Roche, 2003).

pIC50: −log10 of the molar value.

This data set in a line: Inhibition of P-glycoprotein using calcein-AM assay transfected in porcine PBCEC.

The pIC50 is the negative decadic logarithm of the IC50, by convention in mol/L. Take `COC(=O)C1C(C)=NC(C)=C(C(=O)OCCN(C)Cc2ccccc2)C1c1cccc([N+](=O)[O-])c1` (stereo unspecified) [Cardene]: the pIC50 is 6.02.
